These results are taken from article PMC2374418, “A prolonged methoxymorpholino doxorubicin (PNU-152243 or MMRDX) infusion schedule in patients with solid tumours: a phase 1 and pharmacokinetic study” (British Journal of Cancer, 2000).

The data set can be described thus: Pharmacokinetics in plasma and urine, first cycle, non-compartmental analysis. The text has this: Nowadays, anthracyclines play an important role in chemothera- peutic treatment of a wide variety of tumour types. The clinical use of anthracyclines is limited by their toxicity profile, especially irreversible, cumulative dose-related cardiotoxicity, and by intrinsic or acquired resistance of tumours cells. Mechanisms of this resistance consist of several pathways, such as overexpression of drug efflux pumps (i.e. P-glycoprotein), decrease in topoiso- merase II enzyme levels, and increase in cellular detoxifying capacity (Kaye and Merry, 1985; Deffie et al, 1989; de Jong et al, 1990; Ford and Hait, 1990; Roninson, 1997). Morpholinyl anthracyclines, such as methoxymorpholino doxorubicin (MMRDX or PNU-152243), were synthesized in search for new anthracyclines with at least partially novel modes of action, including activity on multidrug-resistant (MDR) tumours. MMRDX is a novel doxorubicin derivative in which the nitrogen atom of the daunosamine is enclosed in a methoxymor- pholino ring (Figure 1). […] The working mechanism of morpholinyl anthracyclines appears to be different from other anthracyclines. Morpholinyl anthracyclines inhibit ribosomal gene transcription as well as topoisomerase I-mediated DNA-cleavage (Wassermann et al, 1988, 1990). […] In addition, we assessed pharmacokinetics of prolonged MMRDX-infusion. […]

Consider “13-dihydro-3-deamino-3-(2(S)-meth- oxy-4-morpholinyl) doxorubicin [13-dihydro metabolite]”, for which the Renal excretion result (3 h i.v. infusion) is “negligible”. Also, the “Urine excretion of the 13-dihydro metabolite” value (after MMRDX 3 h infusion) is “up to 2.3 % of the administered dose”.
